Source: PubChem BioAssay
Compounds with a hit are over-represented: about 0.34% of the library has one in this group of screens.
S-ASM inh – Inhibitors of Secretory Acid Sphingomyelinase (S-ASM): qHTS; AID 504937, 2011; Sphingomyelin phosphodiesterase (Homo sapiens), P17405; placental ASM, HMU-PC fluorogenic substrate, 60 min; 340,000 compounds, 0.006% hits; Potency, µM (doses to about 57.5 µM), most hits filed as inhibitors
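Human placenta-derived ASM enzyme was preincubated with compound for 10 minutes at room temperature, then given fluorogenic substrate HMU-PC0 (9 uM final) for 60 minutes at 37 °C; a pH 10 stop preceded fluorescence reading at Ex 386/Em 447 nm.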
Rango release inh – qHTS Assay for Inhibitors of RanGTP induced Rango (Ran-regulated importin-beta cargo) - Importin beta complex dissociation | 340,000 compounds, 0.071% hits | Biochemical FRET Rango-importin beta, RanGTP-induced dissociation | Snurportin-1 (Homo sapiens) + GTP-binding nuclear protein Ran (Homo sapiens) + Importin … | Potency, µM (highest dose often 46.1 µM); calls by dose curve; also: nearly all actives have a fitted effect of over 45% in size
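Compounds preincubate 5 min with complex of recombinant Rango and importin beta in PBS with 1 mM DTT. Ran (0.6 uM) loaded with 2 mM GTP plus 0.2 uM RCC1 starts dissociation; FRET is recorded 45 min later.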
Vif-APOBEC3F blk – qHTS for Inhibitors of Vif-A3F Interactions: qHTS. HeLa A3F-eYFP + Vif (tagged APOBEC3F with the HIV-1 protein that degrades it), YFP fluorescence increase. Potency, µM (series often up to 46.1 µM). 390,000 compounds, 0.2% hits. AID 602313, 2012; also: nearly all actives have a fitted effect of over 65% in size
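HeLa cells stably expressing A3F-eYFP plus Vif, plated and incubated overnight at 37 deg C, then exposed to compounds overnight at 37 deg C. Blocked degradation read as raised yellow fluorescence (Ex 488/Em 500-530).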
Eya2 inh – qHTS Assay for Inhibitors of the Phosphatase Activity of Eya2; recombinant Eya2, OMFP fluorescence dephosphorylation (OMFP is methylfluorescein phosphate); Potency, µM (series often up to 76.9 µM), most hits filed as inhibitors; 330,000 compounds, 0.006% hits; AID 488837, 2010
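Eya2 protein (added as 0.2 uM solution) was preincubated with compound for 10 min at ambient temperature in 50 mM HEPES pH 7.5, 50 mM NaCl, 5 uM MgCl2, 0.05% BSA, 1 mM DTT. OMFP (added at 50 uM) then reacted 10 min; fluorescence read at 485/525 nm.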
Rango-impB inh – qHTS Assay for Inhibitors of Rango (Ran-regulated importin-beta cargo) - Importin beta complex formation; Importin subunit beta-1 (Homo sapiens), Q14974; Rango CFP/YFP FRET sensor + importin beta, 45 min; Potency, µM (doses to about 92.2 µM); 340,000 compounds, 0.031% hits; AID 540263, 2011; calls by dose curve; also: nearly all actives have a fitted effect of over 15% in size
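FRET biosensor (snurportin 1 IBB flanked by EYFP and cerulean), 50 nM, with compound 5 min, then 0.125 microM importin beta in PBS, 1 mM DTT, 0.02% Tween-20, 0.1% BSA. CFP/YFP ratio read after 45 min at room temperature; pre-read flags interference.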
Vif-A3G inh – qHTS for Inhibitors of Vif-A3G Interactions: qHTS; HeLa A3G-eYFP + Vif (tagged APOBEC3G with the HIV-1 protein that degrades it), YFP fluorescence, overnight; Potency, µM (titrated, usually from 46.1 µM), hits mostly inhibitors; 410,000 compounds, 0.076% hits; AID 602310, 2012; also: nearly all actives have a fitted effect of over 60% in size
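Read-out is eYFP fluorescence (Ex 488/Em 500-530) from Vif-expressing HeLa A3G-eYFP cells; more signal means A3G escaped Vif-mediated degradation. Cells plated overnight, compound pinned in, incubated overnight at 37 deg C.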
Of the large screens only hits and unclear results are named; the others gave an inactive call; ! = a repeat was not active. Unless noted, calls follow the shape of the dose curve; as a rule, active = well fitted curve in the direction sought with a large enough effect; inconclusive = small, poorly fitted or top-dose-only effect, or another doubt; inactive = no such curve, though single readings can be large; an effect the other way counts as inactive or inconclusive.

Amino acid sequences for entries named in this document (tags omitted). Residues count along the entry.
Sphingomyelin phosphodiesterase (Homo sapiens), P17405, UniProt P17405, 47-631 limits assumed: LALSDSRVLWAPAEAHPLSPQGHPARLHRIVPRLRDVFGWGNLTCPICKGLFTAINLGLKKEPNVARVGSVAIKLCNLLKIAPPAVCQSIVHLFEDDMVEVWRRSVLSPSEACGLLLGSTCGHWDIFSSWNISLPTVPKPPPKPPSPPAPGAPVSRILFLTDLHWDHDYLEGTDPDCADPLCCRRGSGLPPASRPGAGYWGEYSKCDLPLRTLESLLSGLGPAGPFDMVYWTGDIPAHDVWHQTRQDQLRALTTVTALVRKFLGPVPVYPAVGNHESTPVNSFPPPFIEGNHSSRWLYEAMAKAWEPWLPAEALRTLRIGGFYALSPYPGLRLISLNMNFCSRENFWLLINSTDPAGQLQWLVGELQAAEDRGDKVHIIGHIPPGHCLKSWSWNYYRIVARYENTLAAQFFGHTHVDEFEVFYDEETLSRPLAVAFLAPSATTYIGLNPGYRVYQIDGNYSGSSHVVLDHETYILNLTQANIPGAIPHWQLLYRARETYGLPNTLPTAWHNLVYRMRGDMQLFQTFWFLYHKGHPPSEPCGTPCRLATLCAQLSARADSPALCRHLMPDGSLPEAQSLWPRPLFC
Importin subunit beta-1 (Homo sapiens), Q14974, UniProt Q14974, whole entry, looked up: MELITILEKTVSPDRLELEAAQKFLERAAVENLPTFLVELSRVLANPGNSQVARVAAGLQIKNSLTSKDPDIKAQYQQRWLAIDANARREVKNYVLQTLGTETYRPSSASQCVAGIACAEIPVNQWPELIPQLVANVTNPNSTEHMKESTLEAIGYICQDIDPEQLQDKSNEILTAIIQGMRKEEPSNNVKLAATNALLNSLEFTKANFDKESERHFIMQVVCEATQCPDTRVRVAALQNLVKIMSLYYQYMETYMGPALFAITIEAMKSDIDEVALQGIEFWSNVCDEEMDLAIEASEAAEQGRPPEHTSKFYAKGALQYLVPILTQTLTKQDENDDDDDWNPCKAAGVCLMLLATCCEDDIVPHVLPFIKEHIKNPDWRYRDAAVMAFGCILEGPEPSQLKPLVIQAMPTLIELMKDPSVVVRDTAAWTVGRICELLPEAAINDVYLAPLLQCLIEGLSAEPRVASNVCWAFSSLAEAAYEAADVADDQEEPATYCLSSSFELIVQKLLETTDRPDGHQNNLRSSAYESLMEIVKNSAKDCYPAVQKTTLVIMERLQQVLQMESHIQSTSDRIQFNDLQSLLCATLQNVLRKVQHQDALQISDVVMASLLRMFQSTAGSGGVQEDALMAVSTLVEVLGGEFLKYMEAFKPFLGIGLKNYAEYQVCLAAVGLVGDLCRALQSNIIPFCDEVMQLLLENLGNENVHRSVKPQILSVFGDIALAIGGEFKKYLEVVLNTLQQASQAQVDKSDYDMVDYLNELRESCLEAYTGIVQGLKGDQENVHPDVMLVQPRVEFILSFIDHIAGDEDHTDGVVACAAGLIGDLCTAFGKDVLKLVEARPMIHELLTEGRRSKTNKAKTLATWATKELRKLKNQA

COc1ccc(OC)c2c(C)ccnc12	none (no result: S-ASM inh, Rango release inh, Vif-APOBEC3F blk, Eya2 inh, Rango-impB inh)
CCOC(=O)N1CCC(Nc2nc3ccccc3nc2NS(=O)(=O)c2ccc(Cl)cc2)CC1	Rango release inh inconclusive, Vif-APOBEC3F blk 32µM, Rango-impB inh inconclusive
C[N+](C)(CCCCCI)c1ccc(/C=C/c2nc3ccccc3s2)cc1	none (no result: S-ASM inh, Rango release inh, Vif-APOBEC3F blk, Eya2 inh, Rango-impB inh)
COc1cccc(C(=O)Nc2cc(C(=O)NCCc3ccccc3)ccc2Cl)c1	none
COc1cccc(/C(O)=C/c2nc3ccc(C(=O)NCCc4cccc(C)c4)cc3[nH]c2=O)c1	Rango release inh inconclusive, Vif-APOBEC3F blk inconclusive, Rango-impB inh inconclusive, Vif-A3G inh 5.6µM
O=C(NCCc1ccc(Cl)cc1)c1ccc2nc[nH]c2c1	Eya2 inh inconclusive
COc1cccc(/C(O)=C/c2nc3ccc(C(=O)NCCc4ccc(Cl)cc4)cc3[nH]c2=O)c1	Rango release inh inconclusive, Vif-APOBEC3F blk 5µM, Rango-impB inh inconclusive, Vif-A3G inh inconclusive
COc1ccc(Br)cc1/C=N/NC(=O)c1cc(Br)ccc1O	none (no result: S-ASM inh, Rango release inh, Vif-APOBEC3F blk, Rango-impB inh, Vif-A3G inh)
COc1ccc(C(=O)N/N=C/c2cc(Br)ccc2O)cc1OC	Rango release inh inconclusive, Vif-APOBEC3F blk 11µM, Eya2 inh inconclusive, Rango-impB inh inconclusive
O=C1C(SCCO)=C(SCCO)C(=O)c2ccccc21	Vif-APOBEC3F blk inconclusive, Eya2 inh 50µM!, Vif-A3G inh inconclusive
Cc1onc(-c2c(F)cccc2Cl)c1C(=O)O/N=C(\N)c1ccc([N+](=O)[O-])o1	Vif-A3G inh 22µM
C/C(=N\OC(=O)c1c(-c2c(F)cccc2Cl)noc1C)c1nccs1	none
C(=C\c1ccnc2ccccc12)/c1cc2c3c(c1)CCCN3CCC2	none (no result: S-ASM inh, Rango release inh, Vif-APOBEC3F blk, Eya2 inh, Rango-impB inh)
CCOc1ccc(CNC(=O)C2CCN(S(=O)(=O)c3ccc4c(ccn4C)c3)CC2)cc1	none (no result: S-ASM inh, Rango release inh, Eya2 inh, Rango-impB inh)
CCCCCCCCCCCCCCCCCCOC[C@H](COP(=O)([O-])OCC[N+](C)(C)C)OC	Eya2 inh 25µM (no result: S-ASM inh, Rango release inh, Vif-APOBEC3F blk, Rango-impB inh, Vif-A3G inh)
CCCCCCCCCCCCCCCC(=O)OC[C@H](COP(=O)([O-])OCC[N+](C)(C)C)OC(=O)CCCCCCCCCCCCCCC	none (no result: S-ASM inh, Rango release inh, Vif-APOBEC3F blk, Rango-impB inh, Vif-A3G inh)
CCOC(=O)/C=c1/s/c(=C\c2c(OC)ccc3ccccc23)c(=O)n1CC(=O)NCC1CCCO1 (stereo unspecified)	Rango release inh inconclusive, Vif-APOBEC3F blk inconclusive, Rango-impB inh inconclusive, Vif-A3G inh 11µM (no result: Eya2 inh)
CCN1C(=O)/C(=C2/Sc3ccc(OC)cc3N2C)SC1=Nc1cccc(O)c1	Rango release inh inconclusive, Vif-APOBEC3F blk inconclusive, Rango-impB inh inconclusive, Vif-A3G inh 10µM
Brc1ccc[n+](CCC2CCCCC2)c1	none (no result: S-ASM inh, Rango release inh, Vif-APOBEC3F blk, Eya2 inh, Rango-impB inh)
CC(C)(C)n1ncc2c(=O)n(Cc3ccc([S+](=O)([O-])N4CCOCC4)cc3)cnc21	none (no result: S-ASM inh, Rango release inh, Vif-APOBEC3F blk, Eya2 inh, Rango-impB inh)
COc1ccc2c(Cl)c(C(=O)N/N=C3\CCCC(=O)C3)sc2c1	Rango release inh inconclusive, Vif-APOBEC3F blk inconclusive, Rango-impB inh inconclusive, Vif-A3G inh 2.8µM
NC(=S)NN=C1c2ccccc2-c2c(F)c(F)c(F)c(F)c21	Rango-impB inh 73µM (no result: Eya2 inh)
O=C([C@@H]1CC=C[C@@H]2CCN(C3CC3)C(=O)[C@@H]21)N1CCOCC1	none (no result: S-ASM inh, Rango release inh, Vif-APOBEC3F blk, Eya2 inh, Rango-impB inh)
O=C(CCCCCn1c(=S)[nH]c2ccc(N3CCOCC3)cc2c1=O)NCc1ccccc1	Rango release inh inconclusive, Rango-impB inh inconclusive
O=C(CCCCCn1c(=S)[nH]c2ccc(N3CCOCC3)cc2c1=O)NCc1cccc(Cl)c1	Rango release inh 4.6µM, Vif-APOBEC3F blk inconclusive, Rango-impB inh inconclusive
